Laboratory results from paper PMC2990756, “Quantitative High-Throughput Screening Identifies 8-Hydroxyquinolines as Cell-Active Histone Demethylase Inhibitors” (PLoS ONE, 2010).

By UniProt entry, the sequences of proteins in these tests, tags left out. Residues count along the entry.
UniProt Q9GZT9, 181-426 limits assumed: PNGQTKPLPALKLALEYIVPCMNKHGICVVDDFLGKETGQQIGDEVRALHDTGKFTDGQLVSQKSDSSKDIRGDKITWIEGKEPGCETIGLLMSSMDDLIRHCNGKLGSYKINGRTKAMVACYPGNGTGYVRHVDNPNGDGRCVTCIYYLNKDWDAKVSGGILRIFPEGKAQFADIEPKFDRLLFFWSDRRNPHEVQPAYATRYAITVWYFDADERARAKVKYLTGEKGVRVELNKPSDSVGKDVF

Target: PHD2 (catalytic domain) (Homo sapiens, UniProt Q9GZT9)
Assay: MALDI-TOF MS peptide hydroxylation assay, PHD2

With `O=C(O)c1ccc(O)c2ncccc12` [SID 85736331, 5-carboxy-8-hydroxyquinoline] the IC50 was 14.3 µM.
